Source: patent publication US7846957B2, “Aromatase inhibition to enhance assisted reproduction” (Ares Trading S.A., priority 2001, dated 2010)

Test system: unexplained infertility patients
Experiment: Prospective controlled study: letrozole in addition to FSH vs FSH only, intrauterine insemination (Example 1)
Type: in vivo, human
Conditions: for Pregnancy rate: letrozole 2.5 mg/day day 3 to 7, FSH 50-150 IU/day
Method: This was a prospective controlled study that included a study group, the patients of which received letrozole (2.5 mg/day from (day 3 to 7 of the menstrual cycle) in addition to FSH and a control group that received FSH only. The study group included 12 unexplained infertility patients. The control group-consisted of 55 unexplained infertility patients. All patients received recombinant or highly purified FSH (50-150 IU/day starting on day 3 to 7 until day of hCG (10,000 IU) that was given when 2 leading follicles were >2 cm). The FSH regimen was based on the patient's clinical profile. Patients were not randomized. All patients had intrauterine insemination. There was no statistically significant difference between the study and control groups as regards age, weight, infertility duration, number of prior insemination cycles, semen parameters or type of FSH.

FSH only: recombinant or highly purified follicle stimulating hormone, control group treatment
Day of hCG administration (day of menstrual cycle): 12 | Follicle (>1.8 cm) on hCG day (number of follicles, on hCG day): 3.2 | Endometrial thickness (on hCG day) (on hCG day): 12.1 | Estradiol on hCG day (on hCG day): 3140 pmol/L | Estradiol/mature follicle (on hCG day): 969 pmol/L | LH on hCG day (IU/L) (on hCG day): 18.3 IU/L | Total FSH dose/cycle (IU) (unexplained infertility, IUI): 1320 IU | Pregnancy rate (unexplained infertility, IUI): 18% | Pregnancy rate (unexplained infertility, IUI, listed as FSH): 18%
